Only a part is listed here, and it is no random draw. Active and inactive are the calls of the source. Rule as the data show it: active = inhibition above about 30%; inactive = below that, where a call was filed.

Chains of the proteins cited; added tags and fusions are not shown.
UniProt P14416, whole entry, looked up: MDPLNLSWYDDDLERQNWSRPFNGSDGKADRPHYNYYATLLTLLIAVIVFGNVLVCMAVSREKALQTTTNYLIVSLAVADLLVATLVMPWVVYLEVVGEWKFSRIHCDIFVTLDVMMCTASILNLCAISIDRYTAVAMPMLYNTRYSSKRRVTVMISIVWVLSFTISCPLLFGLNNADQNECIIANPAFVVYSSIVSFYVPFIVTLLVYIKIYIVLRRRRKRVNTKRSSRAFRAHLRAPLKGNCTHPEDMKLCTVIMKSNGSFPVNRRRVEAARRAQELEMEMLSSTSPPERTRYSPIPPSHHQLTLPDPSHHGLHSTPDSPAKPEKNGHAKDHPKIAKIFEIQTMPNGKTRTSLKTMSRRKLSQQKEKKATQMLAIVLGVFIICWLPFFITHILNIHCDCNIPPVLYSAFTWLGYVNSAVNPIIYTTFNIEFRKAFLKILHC

This assay addresses D(2) dopamine receptor (Homo sapiens) (UniProt P14416). Kind of assay: HTS Assay for Allosteric Antagonists of the Human D2 Dopamine Receptor: Primary Screen for Antagonists. Also: 0% is about no effect. The conditions noted are these: HEK293 TREx D2 cells, calcium flux, dopamine EC80; at 10 µM; active compounds read high. From the text:
NIH Chemical Genomics Center [NCGC] NIH Molecular Libraries Probe Centers Network [MLPCN] MLPCN Grant: NS064831-01 Assay Submitter (PI): David Sibley Dopamine receptors (DARs) are involved in the etiology and/or therapy of a number of neuropsychiatric and endocrine disorders. For instance, all receptor-based antiparkinsonian drugs work via stimulating the D2 DAR subtype whereas all FDA-approved antipsychotic agents are antagonists of this receptor. […] There are three different types of allosteric modulators that we are seeking, two of which will stimulate or augment receptor signaling, allosteric agonists and potentiators, while the third, allosteric antagonists, will attenuate receptor signaling. The present primary screening assay measures compound antagonism after an EC80 addition of dopamine by tracking calcium flux in a […], inducible Hek293 Trex D2 cell line.
Freshly passaged cells are plated in 1536 well black, clear bottom plates at a density of 4000 cells/well in 3 ul of complete media containing 1x tetracycline inducer. After an overnight incubation at 30 C in 5% CO2, cells are loaded with 2 ul of the no wash Calcium Assay Kit (ABD Bioquest) and incubated at room temperature for 30 to 90 minutes. Agonist read: A 10 cycle (1 second/cycle) baseline measurement is taken and then the FDSS online 1536 pintool delivers 23 nl of compound library (as well as dopamine controls) to the plate. The plate is measured for kinetically at 1 cycle/sec for 180 seconds. Following the 180 second read, 1 ul of an EC80 (negative modulation assay) is delivered by an onboard pipette head. Measurements are taken kinetically for an additional 180 seconds.
(In general: Calcium flux is commonly read through the fluorescence of an indicator in the cells.)
The term inhibition denotes the drop in the measured response relative to a control, in per cent. In the case of `O=C(Nc1cc([As](=O)(O)O)ccc1O)c1ccccc1`, the inhibition is inactive: -13.2%. To `CC(C)(C)C(=O)NC(Sc1ccncn1)C(Cl)(Cl)Cl` (configuration not stated) belongs inactive: 2.59%; to `O=[N+]([O-])c1ncn(CCn2ncnc2[N+](=O)[O-])n1`, inactive: -3.56%; to `O=[N+]([O-])c1cccc(NC2=NCC(CBr)S2)c1` (configuration not stated), inactive: 5.8%.

As to `O=C(O)CNc1ccc([As](=O)(O)O)cc1`, the inhibition was inactive: 3.7%. In the case of `COc1ccc(C2=NCC(CBr)S2)cc1` (configuration not stated) it was inactive: -10.5%; in that of `O=[N+]([O-])c1cccc2n[nH]nc12`, inactive: 1.62%.

Regarding `CC(=O)N1C2C3N(C(C)=O)C1C1N(C(C)=O)C(C(N1C(C)=O)N3C(C)=O)N2C(C)=O`, the inhibition was inactive: -7.69%. To `Cc1ccc(NP(=O)(Oc2ccccc2)Oc2ccccc2)nc1` belongs inactive: -1.71%; to `CCc1nc2c(n1)c1c(non1O)c1c2no[n+]1[O-]`, inactive: -8.15%; to `O=[N+]([O-])c1cc([N+](=O)[O-])c(CCNc2ccccc2)c([N+](=O)[O-])c1`, inactive: -8.72%. In the case of `Nc1ccc([As](=O)(O)c2ccc(N)cc2)cc1` it was inactive: 16.3%; in that of `C[N+]1=C2C=CC=CC=C2SC12C([N+](=O)[O-])=CC([N+](=O)[O-])=C[C-]2[N+](=O)[O-]` (configuration not stated), inactive: 5.33%; in that of `CCN(/C(=N/P(=O)(N1CCOCC1)N1CCOCC1)N1CCOCC1)c1ccc(OC)cc1`, inactive: 1.95%. To `CC(C)=N/N=C(\N)N[N+](=O)[O-]` belongs inactive: 6.74%. Take `CN(C)C(=O)OCCc1n(C)cc[n+]1C`: the inhibition was inactive: -16.8%. To `CC1CCN(C(=O)Oc2c(Cl)cc(Cl)c3cccnc23)CC1` belongs inactive: -14.7%; to `NC(=O)c1cc([N+](=O)[O-])cc([N+](=O)[O-])c1N`, inactive: -0.654%; to `CN(C(=O)Cc1ccc(Cl)c(Cl)c1)[C@H]1CCCC[C@H]1N1CCCC1`, inactive: 24.8%. On to `Cc1ccc(N/C(=N/P(=O)(N2CCOCC2)N2CCOCC2)N2CCOCC2)cc1`, for which the inhibition is inactive: -1.09%.

As for `COc1ccccc1OP(=O)(Nc1ccc(C)cn1)Oc1ccccc1OC`, the inhibition was inactive: 2.99%.

Turning to `Cc1ccc(OP(=O)(Nc2nccs2)Oc2ccc(C)cc2)cc1`, the inhibition is inactive: 0.292%. To `CN1CCCC(OC(=O)C(c2ccccc2)c2ccccc2)C1` (configuration not stated) belongs inactive: -44.5%. In the case of `Clc1ccc(Cl)c(NC2=NCC(CBr)S2)c1` (configuration not stated) it was inactive: -7.47%.

Consider `Nc1cc(N)c2nonc2c1[N+](=O)[O-]`, for which the inhibition is inactive: -8.73%. To `Oc1ccccc1CNc1ccccn1` belongs inactive: 6.38%. With `O=C(NC(Sc1ccncn1)C(Cl)(Cl)Cl)c1ccccc1` (configuration not stated), the inhibition was inactive: -2.02%. Take `Cc1c2non([O-])c-2c(C)[n+](=O)[n+]1[O-]`: the inhibition is inactive: 2.31%.

Regarding `CC(=O)Nc1ccc([As](=O)(O)O)cc1`, the inhibition was inactive: -2.84%. In the case of `O=C(O)c1ccccc1[As](=O)(O)O` it was inactive: -19.9%; in that of `O=P(Nc1nc2ccc(Cl)cc2s1)(c1ccccc1)c1ccccc1`, inactive: -4.86%; in that of `Cc1cc(SC(NC(=O)c2ccc(F)cc2)C(Cl)(Cl)Cl)ncn1` (configuration not stated), inactive: -0.307%. In the case of `CCOP(=O)(Nc1ccccc1)OCC` it was inactive: 20.5%; in that of `Cc1ccc(NP(=O)(Oc2ccccc2F)Oc2ccccc2F)nc1`, inactive: -24.3%; in that of `O=[N+]([O-])c1cc([N+](=O)[O-])c(CCN2CCOCC2)c([N+](=O)[O-])c1`, inactive: 6.95%.

As for `CCN(N=Nc1nonc1N)c1nonc1N`, the inhibition is inactive: 3.33%. To `Nc1cccc2ccc([As](=O)(O)O)cc12` belongs inactive: -13.7%. To `O=C(NC1CCS(=O)(=O)C1)NP(=S)(Oc1ccccc1)Oc1ccccc1` (configuration not stated) belongs inactive: -5.17%; to `c1ccc(-c2nn[nH]n2)c(-c2nn[nH]n2)c1`, inactive: -11.1%. In the case of `Cc1ccc(NP(=O)(Oc2cccc(C)c2)Oc2cccc(C)c2)nc1` it was inactive: -8.61%.

As for `CCOC(=O)NC(Sc1ccccc1)C(Cl)(Cl)Cl` (configuration not stated), the inhibition was inactive: -0.269%. To `COC(=O)c1cc2c(s1)N=C(c1ccccc1)N(C)P2(=O)N1CCOCC1` (configuration not stated) belongs inactive: -19%. Turning to `CC(=O)NC(SC(=S)N(CC(C)C)CC(C)C)C(Cl)(Cl)Cl` (configuration not stated), the inhibition is inactive: 8.35%.

Turning to `Cc1ccc(OP(=O)(Nc2ccccn2)Oc2ccc(C)cc2)cc1`, the inhibition was inactive: 11.3%. In the case of `O=C(OC1CN2CCC1CC2)c1ccccc1` (configuration not stated) it was inactive: -24%; in that of `CCC(=O)N1C2C3N(C(=O)CC)C1C1N(C(=O)CC)C(C(N1C(=O)CC)N3C(=O)CC)N2C(=O)CC`, inactive: 12.7%; in that of `Cc1ccccc1OP(=O)(Nc1ccccn1)Oc1ccccc1C`, inactive: -4.3%.

As for `O=c1c2cc([N+](=O)[O-])ccc2[nH]c2c([N+](=O)[O-])cc([N+](=O)[O-])cc12`, the inhibition was inactive: 10.1%. Turning to `CN(C)C(=O)Oc1noc2ccccc12`, the inhibition is inactive: 10.3%. Turning to `O=P1(Nc2nc3ccc(Cl)cc3s2)COc2ccccc2O1` (configuration not stated), the inhibition is inactive: -5.96%. To `CCOc1ccc(C2=NCC(CBr)S2)cc1` (configuration not stated) belongs inactive: 16.6%. Regarding `CC(C)(C)C(=O)NC(Sc1ccccc1)C(Cl)(Cl)Cl` (configuration not stated), the inhibition is inactive: 25.5%. To `CC(=O)c1ccc(N2CC2c2ccncc2)cc1` (configuration not stated) belongs inactive: 2.84%; to `C[C@H]1OP(=O)(Oc2ccccc2)C[C@@H]2O[C@@H]21` (some centres not stated), inactive: -31.1%; to `C[C@@H]1C=CCP(=O)(Oc2ccccc2)O1` (some centres not stated), inactive: 28.5%. `CC(=O)Nc1ccc([As](=O)(O)O)c(O)c1`: the inhibition was inactive: -9.01%. As for `CC(=O)Nc1ccc(Oc2c([N+](=O)[O-])cc([N+](=O)[O-])cc2[N+](=O)[O-])cc1`, the inhibition is inactive: 12.3%. Regarding `CC(C)C(=O)NC(Sc1ccccc1)C(Cl)(Cl)Cl` (configuration not stated), the inhibition is inactive: -8.26%. In the case of `O=P(Nc1nccs1)(c1ccccc1)c1ccccc1`, the inhibition is inactive: 0.762%. For the molecule `c1nnnn1CCn1cnnn1`, the inhibition is inactive: 5.71%. Regarding `O=P(Nc1ccccn1)(c1ccc(Br)cc1)c1ccc(Br)cc1`, the inhibition was inactive: 0.756%. For the molecule `CN(C)C1(CNC(=O)c2ccc(Cl)c(S(N)(=O)=O)c2)CCCCC1`, the inhibition was inactive: -2.78%. In the case of `O=P(Nc1nc2ccccc2s1)(c1ccccc1)c1ccccc1`, the inhibition was inactive: -2.96%. `O=[N+]([O-])c1ccc(O)c(/C=N/Nc2ccc([N+](=O)[O-])cc2[N+](=O)[O-])c1`: the inhibition is inactive: -3.49%. In the case of `CC(=O)NC(SC(=S)N(C)C)C(Cl)(Cl)Cl` (configuration not stated) it was inactive: -27.1%; in that of `O=[N+]([O-])c1ncn(CCn2cnc([N+](=O)[O-])n2)n1`, inactive: 0.537%. Take `C(Cc1nn[nH]n1)Cc1nn[nH]n1`: the inhibition is inactive: 8.52%. To `Nc1ccc([As](=O)(O)c2ccc([N+](=O)[O-])cc2)cc1` belongs inactive: -15.7%. In the case of `O=C(OC1CN2CCC1CC2)c1cccc(Cl)c1` (configuration not stated) it was inactive: -0.0116%. To `Cc1nn(-c2ccccc2)c2c1P(=O)(N1CCOCC1)N(C)C(c1ccccc1)=N2` (configuration not stated) belongs inactive: -1.08%; to `CC1CCC(C(C)C)C(OP(=O)(Nc2ccccn2)c2ccccc2)C1` (configuration not stated), inactive: -39.3%; to `Cc1ccc(C(=O)OC2CN3CCC2CC3)cc1` (configuration not stated), inactive: 7%. As to `O=C(/C=C/c1ccccc1)OC1CN2CCC1CC2` (configuration not stated), the inhibition is inactive: 21%. In the case of `CN(C)C1(CNC(=O)c2ccc(S(C)(=O)=O)cc2)CCCCC1` it was inactive: -0.482%; in that of `O=P1(Nc2ncccn2)COc2ccccc2OC1`, inactive: -2.15%. To `Cc1ccc(OCC(=O)OC2CN3CCC2CC3)cc1` (configuration not stated) belongs inactive: 14.6%. With `O=[As](O)(c1cccs1)c1cccs1`, the inhibition was inactive: -17.2%. As to `O=P1(Nc2ccc(Br)cn2)COc2ccccc2OC1`, the inhibition is inactive: -5.33%. In the case of `Nc1cccc([As](=O)(O)c2ccccc2)c1` it was inactive: 3.13%; in that of `CCOP(=O)(Nc1ccc(C)cn1)OCC`, inactive: 1.9%.

Regarding `O=P1(Nc2ccccn2)COc2ccccc2OC1`, the inhibition was inactive: -2.85%. In the case of `CCC1=CC2Cc3nc4ccc(Cl)cc4c(N)c3C(C1)C2` (configuration not stated) it was inactive: -18.5%; in that of `CCOP(=O)(NC(=NC(C)c1ccccc1)NC(C)c1ccccc1)OCC` (configuration not stated), inactive: 20.5%; in that of `Clc1n[nH]nc1-c1nn[nH][15n]1`, inactive: 3.82%. To `CC(C)(C)C(=O)NC(Sc1ncccn1)C(Cl)(Cl)Cl` (configuration not stated) belongs inactive: 14.8%; to `COc1ccccc1CNC(=O)COC(=O)C(O)(c1ccccc1)c1ccccc1`, inactive: -3.8%; to `O=[As](O)(c1ccccc1Br)c1ccccc1Br`, inactive: 3.49%.

With `CC(C)/C=N\N=C(\N)N[N+](=O)[O-]`, the inhibition was inactive: -24.3%.

In the case of `CN(C(=O)Cc1ccc(Cl)c(Cl)c1)[C@@H]1CCCC[C@H]1N1CCCC1`, the inhibition was inactive: -21%. As to `O=[As](O)(O)c1cccnc1`, the inhibition was inactive: -9.11%. Regarding `COc1cc(C(=O)NCC2(N3CCOCC3)CCCCC2)cc(Cl)c1OC(C)C`, the inhibition was inactive: -4.26%. Turning to `CS(=O)(=O)c1ccc(Cl)c(NC(=O)COC(=O)C(O)(c2ccccc2)c2ccccc2)c1`, the inhibition was inactive: -30%.

With `O=C(OC1CN2CCC1CC2)c1ccc(Cl)cc1` (configuration not stated), the inhibition was inactive: 2.85%.

For the molecule `Cc1cccc(OCC(=O)OC2CN3CCC2CC3)c1` (configuration not stated), the inhibition is active: 33.1%. To `O=[As](O)(c1cccc(O)c1)c1cccc(O)c1` belongs inactive: -9.91%; to `CCCOP(=S)(Nc1nc(N)cc(=O)[nH]1)OCCC`, inactive: -4.22%. `Cc1ccc(NCCc2c([N+](=O)[O-])cc([N+](=O)[O-])cc2[N+](=O)[O-])cc1`: the inhibition is inactive: -13.1%. In the case of `Nc1cccc2c([As](=O)(O)O)cccc12` it was inactive: 23.5%; in that of `COc1cc(C2NCCC3(OCCO3)C2(C)C)cc(OC)c1OC` (configuration not stated), inactive: 0.906%; in that of `CCOP(=O)(Nc1cccc2ccccc12)OCC`, inactive: 0.753%. For `CS(=O)(=O)c1cc([N+](=O)[O-])c2no[n+]([O-])c2c1`, the inhibition is inactive: 8.45%. In the case of `CCOP1(=S)c2c(C)nn(CCC#N)c2N=C(c2ccccc2F)N1C` (configuration not stated) it was inactive: -15.9%.

The values are drawn from PubChem BioAssay AID485344 (National Center for Advancing Translational Sciences (NCATS), 2010).
